This is an account of results in patent US20060286006A1, “Method and apparatus for the treatment of fluid waste streams” (published 2006).

In assay [1] the target is Wild-Type OPH binding Co^2+ (Brevundimonas diminuta, UniProt P0A434). The settings on record: Co^2+ substituted OPH; cited from earlier work.
Assay [2] relates to coated bioactive support component (cell powder of cells expressing a mutant opd gene in latex acrylic paint). Nature of the assay: treatment of Paraoxon contaminated water in reactive column with bioactive coated support component. Conditions: single pass through the column.

Regarding `CCOP(=O)(OCC)Oc1ccc([N+](=O)[O-])cc1`, the kcat in assay [1] was 15000^a s^−1. The “Paraoxon present in the fluid converted to para-nitrophenol” value in assay [2] came to 90%.
